Values quoted from earlier work as cited in patent US10981866B2, “Chemical conjugates of Evans Blue derivatives and their use as radiotherapy and imaging agents” (THE UNITED STATES OF AMERICA, AS REPRESENTED BY THE …, priority 2017, dated 2021).

Protein sequences, listed by entry. Tags and fused reporters are not part of them. Residues count along the entry.
UniProt P02768, 25-609: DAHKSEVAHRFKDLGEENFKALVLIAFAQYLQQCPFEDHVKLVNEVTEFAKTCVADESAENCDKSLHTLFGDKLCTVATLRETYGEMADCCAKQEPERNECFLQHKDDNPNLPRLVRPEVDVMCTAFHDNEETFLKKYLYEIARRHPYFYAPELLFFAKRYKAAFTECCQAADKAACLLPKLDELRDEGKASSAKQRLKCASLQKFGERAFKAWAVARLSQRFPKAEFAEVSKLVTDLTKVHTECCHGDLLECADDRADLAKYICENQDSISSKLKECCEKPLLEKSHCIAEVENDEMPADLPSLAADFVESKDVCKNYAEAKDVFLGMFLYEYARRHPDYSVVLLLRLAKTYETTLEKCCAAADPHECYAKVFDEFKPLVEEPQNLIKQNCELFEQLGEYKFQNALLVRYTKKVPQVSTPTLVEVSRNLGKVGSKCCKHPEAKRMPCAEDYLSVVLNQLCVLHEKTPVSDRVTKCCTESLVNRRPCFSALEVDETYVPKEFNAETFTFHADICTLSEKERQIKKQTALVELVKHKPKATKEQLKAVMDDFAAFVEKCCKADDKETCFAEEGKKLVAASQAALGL

How the values were obtained:
[1] = cited from earlier work
albumin = albumin (Homo sapiens, UniProt P02768); settings: read-out: published binding affinity to albumin; published value; cited from earlier work

## liraglutide [reference compound]
[1]; after subcutaneous administration
  plasma half-life: 11 to 15 h

## GLP-1-(7-37)
[1]; degradation by ubiquitous enzymes
  half-life: 1.5 to 2 min

## Evans Blue
albumin
  Kd: ~2500 nM
